PubChem BioAssay AID828 (The Scripps Research Institute Molecular Screening Center, 2007)
Only a part is listed here, and it is no random draw. The source made the active and inactive calls. Cut-off read from the data, not from the text of the source: active = inhibition above about 27%; inactive = the rest.

Amino acid sequences for entries named in this document (tags omitted).
UniProt O43603, whole entry: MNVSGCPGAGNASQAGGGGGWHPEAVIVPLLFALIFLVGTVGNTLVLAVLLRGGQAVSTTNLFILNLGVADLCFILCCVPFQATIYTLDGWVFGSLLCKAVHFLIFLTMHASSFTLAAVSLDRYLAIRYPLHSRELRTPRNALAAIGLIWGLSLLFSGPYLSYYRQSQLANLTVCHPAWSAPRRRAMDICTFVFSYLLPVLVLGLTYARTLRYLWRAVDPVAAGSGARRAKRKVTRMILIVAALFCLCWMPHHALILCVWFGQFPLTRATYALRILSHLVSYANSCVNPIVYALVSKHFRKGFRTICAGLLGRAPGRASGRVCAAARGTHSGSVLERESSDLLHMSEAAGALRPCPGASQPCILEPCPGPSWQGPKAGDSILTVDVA

biological target: Galanin receptor type 2 (Homo sapiens) (UniProt O43603); experiment: GALR2 antagonists in receptor-expressing cells, primary screen (AID 828); details: antagonist mode, at 4 µM, stronger effect = higher value;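 note: cells stimulated with galanin 1-16 at roughly its EC80; 0% = agonist challenge control and 100% = basal control without agonist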

Row | SMILES | inhibition
1 | O=C(NCC1(N2CCOCC2)CCCCC1)c1cc2ccccc2o1 | inactive: -6.42%
2 | O=C(OC1CN2CCC1CC2)C1c2ccccc2Oc2ccccc21 (stereo not drawn) | inactive: -6.84%
3 | COc1ccc(NC2CCN(CCc3ccccc3)CC2)c(OC)c1 | inactive: -4.03%
4 | N#CC1(Nc2ccccc2)CCN(CCc2ccccc2)CC1 | inactive: 6.66%
5 | O=C(NCC1(N2CCOCC2)CCCCC1)c1cc(=O)[nH]c2ccccc12 | inactive: -2.62%
6 | CN1CCN(CCOC(=O)C(O)(c2ccccc2)c2ccccc2)CC1 | inactive: -1%
7 | CN1CCC(Nc2cccc(F)c2)CC1 | inactive: 2.89%
8 | N/C(=N\O)c1c(N)no[n+]1[O-] | inactive: -5.55%
9 | O=C(OC1CN2CCC1CC2)C1c2ccccc2C=Cc2ccccc21 (stereo not drawn) | inactive: -2.73%
10 | c1ccc(CN2CCC(Nc3ccccc3)CC2)cc1 | inactive: 14.3%
11 | CCN1CCC(Nc2cccc(F)c2)CC1 | inactive: -2.99%
12 | CCOc1ncccc1C(=O)NCC1(N2CCOCC2)CCCCC1 | inactive: 6.55%
13 | CCC(CO)(C(=O)OC1CN2CCC1CC2)c1ccccc1 (stereo not drawn) | inactive: -1.47%
